Experimental findings from patent publication US10150751B2 (Merck Sharp & Dohme Corp., priority 2014, dated 2018) are described below.

The chains behind the UniProt entries cited, without tags or fusion partners.
UniProt O43614, whole entry: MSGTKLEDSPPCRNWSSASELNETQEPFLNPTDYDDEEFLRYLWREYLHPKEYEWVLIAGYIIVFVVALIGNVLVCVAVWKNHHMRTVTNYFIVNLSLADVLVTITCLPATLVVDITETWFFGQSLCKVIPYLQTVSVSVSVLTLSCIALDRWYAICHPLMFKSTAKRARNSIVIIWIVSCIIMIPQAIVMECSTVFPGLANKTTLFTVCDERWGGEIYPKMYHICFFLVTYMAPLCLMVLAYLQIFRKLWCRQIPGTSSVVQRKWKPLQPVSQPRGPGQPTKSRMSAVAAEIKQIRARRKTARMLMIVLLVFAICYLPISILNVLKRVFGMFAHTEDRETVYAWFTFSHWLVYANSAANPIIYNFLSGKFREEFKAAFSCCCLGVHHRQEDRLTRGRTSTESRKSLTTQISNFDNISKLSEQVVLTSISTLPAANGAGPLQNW
UniProt O43613, whole entry: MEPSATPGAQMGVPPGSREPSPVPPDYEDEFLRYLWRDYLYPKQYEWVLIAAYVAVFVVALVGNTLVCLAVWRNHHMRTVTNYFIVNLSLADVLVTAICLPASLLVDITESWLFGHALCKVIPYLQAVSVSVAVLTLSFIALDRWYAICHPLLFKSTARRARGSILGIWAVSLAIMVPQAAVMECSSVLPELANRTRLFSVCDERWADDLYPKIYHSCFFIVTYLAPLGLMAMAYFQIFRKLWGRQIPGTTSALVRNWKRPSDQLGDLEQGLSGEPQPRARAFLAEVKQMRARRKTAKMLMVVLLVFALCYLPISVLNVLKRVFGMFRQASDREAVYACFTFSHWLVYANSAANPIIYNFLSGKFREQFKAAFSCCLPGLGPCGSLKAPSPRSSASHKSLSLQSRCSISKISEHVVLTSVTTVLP

The IC50 is the concentration at which inhibition is half-maximal.

For one assay, the target named is human orexin-2 receptor (Homo sapiens (Human), UniProt O43614). As to the kind of experiment: FLIPR Ca2+ flux assay, hOX2R. It is filed as cell-based. Conditions: read-out: hOX2R FLIPR IC50; CHO cells expressing the human orexin-2 receptor; agonist 70 pM Ala-6,12 orexin-A. As for the experimental part:
The utility of the compounds in accordance with the present invention as orexin receptor OX1R and/or OX2R antagonists may be readily determined without undue experimentation by methodology well known in the art, including the “FLIPR Ca^2+ Flux Assay” (Okumura et al., Biochem. Biophys. Res. Comm. 280:976-981, 2001). In a typical experiment the OX1 and OX2 receptor antagonistic activity of the compounds of the present invention was determined in accordance with the following experimental method. For intracellular calcium measurements, Chinese hamster ovary (CHO) cells expressing the rat orexin-1 receptor or the human orexin-2 receptor, are grown in Iscove's modified DMEM containing 2 mM L-glutamine, […], 1% hypoxanthine-thymidine supplement, 100 U/ml penicillin, 100 μg/ml streptomycin and 10% heat-inactivated fetal calf serum (FCS). The cells are seeded at 20,000 cells/well into Becton-Dickinson black 384-well clear bottom sterile plates coated with poly-D-lysine. All reagents were from GIBCO-Invitrogen Corp. The seeded plates are incubated overnight at 37° C. and 5% CO2. […] Within the Fluorescent Imaging Plate Reader (FLIPR, Molecular Devices), test compounds are added to the plate in a volume of 25 μl, incubated for 5 min and finally 25 μl of agonist is added. Fluorescence is measured for each well at 1 second intervals for 5 minutes and the height of each fluorescence peak is compared to the height of the fluorescence peak induced by 70 pM Ala-6,12 orexin-A with buffer in place of antagonist. […] Alternatively, compound potency can be assessed by a radioligand binding assay (described in Bergman et. al. Bioorg. Med. Chem. Lett. 2008, 18, 1425-1430) in which the inhibition constant (Ki) is determined in membranes prepared from CHO cells expressing either the OX1 or OX2 receptor. The intrinsic orexin receptor antagonist activity of a compound which may be used in the present invention may be determined by these assays.

Assay [1] deals with hOX1R (orexin-1 receptor) (Homo sapiens, UniProt O43613). As to the kind of experiment: FLIPR Ca2+ flux assay, hOX1R. It is filed as cell-based. Conditions: read-out: hOX1R FLIPR IC50; CHO cells expressing the orexin-1 receptor (head: hOX1R; method: rat); agonist 70 pM Ala-6,12 orexin-A. (Calcium assays in cells follow changes in intracellular calcium, usually with a dye or a luminescent sensor.)

On to `COc1ccnc(N[C@@H]2C[C@@H](C)N(C(=O)c3ccccc3-c3nc(C)no3)C2)c1`, for which the IC50 on human orexin-2 receptor was determined as 278 nM; in assay [1] it was 10000 nM.

Take `COc1ccnc(N[C@H]2C[C@H](C)N(C(=O)c3ccccc3OC(F)(F)F)C2)c1`: the IC50 on human orexin-2 receptor turned out to be 41 nM; in assay [1] it was 3950 nM.

Regarding `CCCc1ccccc1C(=O)N1C[C@H](Nc2cc(OC)ccn2)C[C@H]1C`, the IC50 on human orexin-2 receptor stood at 179 nM; in assay [1], 9830 nM.
